Laboratory results: ChEMBL document CHEMBL6182939, “Searching for Synthetic Opioid Rescue Agents. 2: Identification of an Ultra-Potent Synthetic Opioid Rescue Agent” (J Med Chem, 2025)

Assays:
[1] = Metabolic stability in human liver microsomes assessed as half life; format: ADME, Microsome
[2] = Metabolic stability in mouse liver microsomes assessed as half life; format: ADME, Microsome

CO[C@]12CC[C@@]3(C[C@@H]1C(C)(C)O)[C@H]1Cc4ccc(O)c5c4[C@@]3(CCN1CC1CC1)[C@H]2O5
t1/2 [1]: 4.8 min
t1/2 [2]: < 2.5 min
